Assay results as given in EP1635833B1 (priority 2003, dated 2004).

Legend:
[1] = test system: opioid-induced PCO2 increases; experiment: Respiratory depression: arterial blood PCO2 in gerbils; settings: 10 mg/kg s.c. Compound 95 added to fentanyl 0.63 mg/kg s.c.
[2] = test system: opioid-induced PCO2 increases; experiment: Respiratory depression: arterial blood PCO2 in rats; settings: 40 mg/kg s.c. Compound 95 added to the opioids (fentanyl, morphine), especially at the highest doses tested
[3] = test system: fentanyl cue
[4] = test system: opioid-induced PCO2 increases; experiment: Respiratory depression: arterial blood PCO2 in guinea pigs; settings: Compound 95 added to fentanyl
[5] = Compound 95 at doses ranging from 0.63 to 40 mg/kg s.c.

SMILES: Cc1cccc(C)c1NC(=O)CN1CCN(C2CCN(C(=O)c3cc(C(F)(F)F)cc(C(F)(F)F)c3)C(Cc3ccccc3)C2)CC1 (single isomer, unassigned)
- opioid-induced PCO2 levels [1]: significant decreases
- opioid-induced increases in PCO2 [2]: some attenuation
- antagonism of the fentanyl cue [3, 5]: nor any antagonism
- generalization to the fentanyl cue [3, 5]: did not show any generalization
- stimulus generalization of fentanyl ([3]; pretreatment with 10 or 40 mg/kg Compound 95): did not affect
- opioid-induced PCO2 levels [4]: reductions in the opioid-induced PCO2 levels
